From PubChem BioAssay (NCI)
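The compound was tested at five concentrations on cells cultured in 96-well plates, with a 48-hour exposure period. Here, GI50 denotes the concentration required for 50% inhibition of growth. TGI denotes the concentration required for complete inhibition of growth.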

Tests used:
Experiment in all cases: NCI-60 cell line screen, 48 h
[1] = tested on: HOP-92 NSCLC
[2] = tested on: OVCAR-4 ovarian
[3] = tested on: SK-MEL-5 melanoma
[4] = tested on: U251 CNS
[5] = tested on: MDA-MB-435
[6] = tested on: SF-268 CNS
[7] = tested on: SR leukemia
[8] = tested on: SNB-19 CNS
[9] = tested on: HT29 colon
[10] = tested on: SNB-75 CNS
[11] = tested on: MCF7 breast
[12] = tested on: K-562 leukemia
[13] = tested on: MDA-N
[14] = tested on: TK-10 renal
[15] = tested on: NCI-H460 lung
[16] = tested on: HCC-2998 colon
[17] = tested on: NCI-H522 lung
[18] = tested on: BT-549 breast
[19] = tested on: MOLT-4 leukemia
[20] = tested on: KM12 colon
[21] = tested on: NCI-H322M lung
[22] = tested on: SK-MEL-2 melanoma
[23] = tested on: A498 renal
[24] = tested on: SK-MEL-28 melanoma
[25] = tested on: OVCAR-8 ovarian
[26] = tested on: M14 melanoma
[27] = tested on: UACC-257 melanoma
[28] = tested on: T-47D breast
[29] = tested on: NCI-H226 lung
[30] = tested on: LOX IMVI melanoma
[31] = tested on: A549 NSCLC
[32] = tested on: ACHN renal
[33] = tested on: RXF 393 renal
[34] = tested on: COLO 205 colon
[35] = tested on: SK-OV-3 ovarian
[36] = tested on: EKVX NSCLC
[37] = tested on: SF-539 CNS
[38] = tested on: NCI/ADR-RES ovarian
[39] = tested on: HCT-116 colon
[40] = tested on: HCT-15 colon
[41] = tested on: HOP-62 NSCLC
[42] = tested on: MALME-3M melanoma
[43] = tested on: DU-145 prostate
[44] = tested on: SN12C renal
[45] = tested on: SW-620 colon
[46] = tested on: UO-31 renal
[47] = tested on: HL-60(TB) leukemia
[48] = tested on: HS 578T breast
[49] = tested on: NCI-H23 lung
[50] = tested on: 786-0 renal
[51] = tested on: MDA-MB-231 breast
[52] = tested on: CCRF-CEM leukemia
[53] = tested on: PC-3 prostate
[54] = tested on: SF-295 CNS
[55] = tested on: IGROV1 ovarian
[56] = tested on: CAKI-1 renal
[57] = tested on: RPMI-8226 leukemia
[58] = tested on: OVCAR-3 ovarian
[59] = tested on: OVCAR-5 ovarian

With `CC1=CC2O[C@@H]3C[C@H]4OC(=O)CCCCC(C(C)O)OCC(O)C5(C)OC5C(=O)OCC2(C[C@H]1O)[C@]4(C)[C@@]31CO1` (some centres not stated) the GI50 [1] was 484 nM, the TGI [1] was 1890 nM and the GI50 [2] was 1900 nM. It also gave a TGI [2] of 5760 nM, a GI50 [3] of 388 nM and a TGI [3] of 1280 nM. The GI50 [4] was 402 nM, the TGI [4] was 2900 nM and the GI50 [5] was 2150 nM. The TGI [5] was 4590 nM, the GI50 [6] was 2440 nM and the TGI [6] was 8410 nM. The TGI [7] was 654 nM, the GI50 [8] was 494 nM and the TGI [8] was 3640 nM. The GI50 [9] was 2130 nM, the TGI [9] was 5700 nM and the GI50 [10] was 714 nM. It also gave a TGI [10] of 2400 nM, a GI50 [11] of 277 nM and a TGI [11] of 1920 nM. The GI50 [12] was 531 nM, the TGI [12] was 2580 nM and the GI50 [13] was 1100 nM. The TGI [13] was 3360 nM, the GI50 [14] was 2850 nM and the TGI [14] was 8930 nM. It also gave a GI50 [15] of 1020 nM, a TGI [15] of 3610 nM and a GI50 [16] of 618 nM. For the same compound, the TGI [16] was 2460 nM, the GI50 [17] was 276 nM and the TGI [17] was 672 nM. The GI50 [18] was 2120 nM, the TGI [18] was 5610 nM and the GI50 [19] was 688 nM. The TGI [19] was 2590 nM, the GI50 [20] was 1150 nM and the TGI [20] was 3560 nM. For the same compound, the GI50 [21] was > 10000 nM, the TGI [21] was > 10000 nM and the GI50 [22] was 516 nM. It also gave a TGI [22] of 2060 nM, a GI50 [23] of 1090 nM and a TGI [23] of 2710 nM. The GI50 [24] was 513 nM, the TGI [24] was 1660 nM and the GI50 [25] was 2830 nM. The TGI [25] was 8300 nM, the GI50 [26] was 1130 nM and the TGI [26] was 2760 nM. For the same compound, the GI50 [27] was 1720 nM, the TGI [27] was 4430 nM and the GI50 [28] was 373 nM. For the same compound, the TGI [28] was 3550 nM, the GI50 [29] was 1600 nM and the TGI [29] was 4080 nM. For the same compound, the GI50 [30] was 198 nM, the TGI [30] was 646 nM and the GI50 [31] was 3270 nM. The TGI [31] was 9390 nM, the GI50 [32] was 3760 nM and the TGI [32] was 7550 nM. For the same compound, the GI50 [33] was 447 nM, the TGI [33] was 2010 nM and the GI50 [34] was 952 nM. The TGI [34] was 2740 nM, the GI50 [35] was 1890 nM and the TGI [35] was 6730 nM. The GI50 [36] was 5090 nM, the TGI [36] was > 10000 nM and the GI50 [37] was 391 nM. For the same compound, the TGI [37] was 1150 nM, the GI50 [38] was > 10000 nM and the TGI [38] was > 10000 nM. It also gave a GI50 [39] of 1020 nM, a TGI [39] of 3350 nM and a GI50 [40] of 5180 nM. For the same compound, the TGI [40] was > 10000 nM, the GI50 [41] was 1690 nM and the TGI [41] was 6050 nM. For the same compound, the GI50 [42] was 633 nM, the TGI [42] was 2110 nM and the GI50 [43] was 2390 nM. It also gave a TGI [43] of 6170 nM, a GI50 [44] of 2170 nM and a TGI [44] of 6400 nM. For the same compound, the GI50 [45] was 2400 nM, the TGI [45] was 8910 nM and the GI50 [46] was > 10000 nM. The TGI [46] was > 10000 nM, the GI50 [47] was 87.9 nM and the TGI [47] was 2050 nM. The GI50 [48] was 1340 nM, the TGI [48] was 3690 nM and the GI50 [49] was 1080 nM. The TGI [49] was 3750 nM, the GI50 [50] was 2010 nM and the TGI [50] was 7470 nM. For the same compound, the GI50 [51] was 4870 nM, the TGI [51] was > 10000 nM and the GI50 [52] was 484 nM. It also gave a TGI [52] of 3040 nM, a GI50 [53] of 2390 nM and a TGI [53] of 5990 nM. For the same compound, the GI50 [54] was 2720 nM, the TGI [54] was 6640 nM and the GI50 [55] was 562 nM. It also gave a TGI [55] of 2820 nM, a GI50 [56] of 4810 nM and a TGI [56] of 8410 nM. The GI50 [57] was 1590 nM, the TGI [57] was 2510 nM and the GI50 [58] was 677 nM. It also gave a TGI [58] of 2320 nM, a GI50 [59] of 3220 nM and a TGI [59] of 7370 nM.
